What was measured:
[1] = biological target: Tyrosine-protein kinase BTK (Homo sapiens, UniProt Q06187); assay: Inhibition of BTK (unknown origin) in presence of ATP
[2] = biological target: RAC-alpha serine/threonine-protein kinase (Homo sapiens, UniProt P31749); assay: Inhibition of AKT1 (unknown origin) in presence of ATP
Aurora kinase A = biological target: T1, Aurora kinase A (Homo sapiens, UniProt O14965); assay: Inhibition of Aurora-A (unknown origin) in presence of ATP
T1 sequence (O14965 whole entry): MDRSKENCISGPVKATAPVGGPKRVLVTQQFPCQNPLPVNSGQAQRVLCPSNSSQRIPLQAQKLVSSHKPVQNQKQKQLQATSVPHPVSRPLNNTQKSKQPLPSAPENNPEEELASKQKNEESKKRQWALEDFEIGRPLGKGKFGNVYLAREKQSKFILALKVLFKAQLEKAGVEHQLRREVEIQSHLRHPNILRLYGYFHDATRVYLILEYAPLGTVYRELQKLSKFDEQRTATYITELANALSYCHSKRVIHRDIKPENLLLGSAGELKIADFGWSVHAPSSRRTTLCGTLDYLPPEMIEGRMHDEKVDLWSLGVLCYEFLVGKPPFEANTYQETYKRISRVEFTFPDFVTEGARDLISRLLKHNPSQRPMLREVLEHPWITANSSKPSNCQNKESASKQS

By UniProt entry, the sequences of proteins in these tests, tags left out. Where a name states a change or a piece, a line headed by the entry shows the natural chain unless it says otherwise.
UniProt Q06187: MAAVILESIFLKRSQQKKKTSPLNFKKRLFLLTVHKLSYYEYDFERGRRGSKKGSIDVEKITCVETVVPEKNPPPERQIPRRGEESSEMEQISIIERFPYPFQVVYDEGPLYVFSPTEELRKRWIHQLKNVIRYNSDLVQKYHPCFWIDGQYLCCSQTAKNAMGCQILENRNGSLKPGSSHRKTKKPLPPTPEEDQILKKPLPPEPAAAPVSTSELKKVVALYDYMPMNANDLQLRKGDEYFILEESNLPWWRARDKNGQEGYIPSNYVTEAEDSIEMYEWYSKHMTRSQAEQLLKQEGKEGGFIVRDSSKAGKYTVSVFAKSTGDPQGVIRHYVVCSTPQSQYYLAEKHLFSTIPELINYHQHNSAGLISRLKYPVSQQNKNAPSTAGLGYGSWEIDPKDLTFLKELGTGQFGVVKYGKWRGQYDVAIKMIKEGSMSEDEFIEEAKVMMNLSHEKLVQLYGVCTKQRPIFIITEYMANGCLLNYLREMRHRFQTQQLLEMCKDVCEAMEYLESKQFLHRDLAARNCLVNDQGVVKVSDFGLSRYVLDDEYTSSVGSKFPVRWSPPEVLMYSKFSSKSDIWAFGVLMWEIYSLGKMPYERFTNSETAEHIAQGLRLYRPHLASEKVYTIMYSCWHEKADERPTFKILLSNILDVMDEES
UniProt P31749: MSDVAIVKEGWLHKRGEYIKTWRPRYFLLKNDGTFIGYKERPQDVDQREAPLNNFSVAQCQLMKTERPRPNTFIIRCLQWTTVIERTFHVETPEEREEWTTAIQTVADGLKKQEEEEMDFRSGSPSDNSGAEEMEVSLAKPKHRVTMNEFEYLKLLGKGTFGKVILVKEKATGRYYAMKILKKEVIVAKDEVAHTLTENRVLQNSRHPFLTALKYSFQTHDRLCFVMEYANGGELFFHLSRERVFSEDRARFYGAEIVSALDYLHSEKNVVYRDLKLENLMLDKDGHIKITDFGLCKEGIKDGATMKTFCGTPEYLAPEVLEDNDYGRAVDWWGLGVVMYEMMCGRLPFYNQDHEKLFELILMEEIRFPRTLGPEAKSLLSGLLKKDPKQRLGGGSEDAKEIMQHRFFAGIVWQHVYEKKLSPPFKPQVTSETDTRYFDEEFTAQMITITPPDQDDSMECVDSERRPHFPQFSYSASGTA
UniProt O14920: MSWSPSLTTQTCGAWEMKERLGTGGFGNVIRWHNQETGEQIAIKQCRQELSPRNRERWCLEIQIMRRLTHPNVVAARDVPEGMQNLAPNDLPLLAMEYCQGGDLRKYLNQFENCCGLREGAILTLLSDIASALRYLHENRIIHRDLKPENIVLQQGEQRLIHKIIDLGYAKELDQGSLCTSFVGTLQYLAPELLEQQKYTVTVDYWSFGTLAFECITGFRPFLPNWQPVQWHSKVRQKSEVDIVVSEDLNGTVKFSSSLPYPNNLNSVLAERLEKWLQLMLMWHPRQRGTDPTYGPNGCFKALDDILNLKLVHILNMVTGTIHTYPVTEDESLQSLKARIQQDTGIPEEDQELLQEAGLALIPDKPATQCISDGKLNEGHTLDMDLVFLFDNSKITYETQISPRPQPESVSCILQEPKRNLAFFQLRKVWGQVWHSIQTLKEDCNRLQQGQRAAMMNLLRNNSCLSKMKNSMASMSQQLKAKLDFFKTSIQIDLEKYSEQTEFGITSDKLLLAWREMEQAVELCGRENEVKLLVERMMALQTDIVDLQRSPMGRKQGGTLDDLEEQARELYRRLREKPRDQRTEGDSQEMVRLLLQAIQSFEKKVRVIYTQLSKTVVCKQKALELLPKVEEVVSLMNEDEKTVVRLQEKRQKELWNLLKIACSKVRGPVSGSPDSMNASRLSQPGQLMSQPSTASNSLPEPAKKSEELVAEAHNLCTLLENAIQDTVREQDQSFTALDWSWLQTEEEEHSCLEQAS
UniProt P28482, whole entry: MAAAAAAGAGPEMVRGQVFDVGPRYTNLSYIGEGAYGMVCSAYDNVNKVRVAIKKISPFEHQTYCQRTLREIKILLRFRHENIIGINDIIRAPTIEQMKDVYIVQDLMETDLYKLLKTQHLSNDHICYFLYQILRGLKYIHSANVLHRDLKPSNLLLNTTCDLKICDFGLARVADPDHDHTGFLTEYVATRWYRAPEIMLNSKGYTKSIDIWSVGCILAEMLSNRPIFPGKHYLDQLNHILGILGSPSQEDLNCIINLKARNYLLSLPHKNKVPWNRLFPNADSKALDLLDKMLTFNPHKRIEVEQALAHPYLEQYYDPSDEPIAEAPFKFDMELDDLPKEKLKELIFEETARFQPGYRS
UniProt P29317, whole entry: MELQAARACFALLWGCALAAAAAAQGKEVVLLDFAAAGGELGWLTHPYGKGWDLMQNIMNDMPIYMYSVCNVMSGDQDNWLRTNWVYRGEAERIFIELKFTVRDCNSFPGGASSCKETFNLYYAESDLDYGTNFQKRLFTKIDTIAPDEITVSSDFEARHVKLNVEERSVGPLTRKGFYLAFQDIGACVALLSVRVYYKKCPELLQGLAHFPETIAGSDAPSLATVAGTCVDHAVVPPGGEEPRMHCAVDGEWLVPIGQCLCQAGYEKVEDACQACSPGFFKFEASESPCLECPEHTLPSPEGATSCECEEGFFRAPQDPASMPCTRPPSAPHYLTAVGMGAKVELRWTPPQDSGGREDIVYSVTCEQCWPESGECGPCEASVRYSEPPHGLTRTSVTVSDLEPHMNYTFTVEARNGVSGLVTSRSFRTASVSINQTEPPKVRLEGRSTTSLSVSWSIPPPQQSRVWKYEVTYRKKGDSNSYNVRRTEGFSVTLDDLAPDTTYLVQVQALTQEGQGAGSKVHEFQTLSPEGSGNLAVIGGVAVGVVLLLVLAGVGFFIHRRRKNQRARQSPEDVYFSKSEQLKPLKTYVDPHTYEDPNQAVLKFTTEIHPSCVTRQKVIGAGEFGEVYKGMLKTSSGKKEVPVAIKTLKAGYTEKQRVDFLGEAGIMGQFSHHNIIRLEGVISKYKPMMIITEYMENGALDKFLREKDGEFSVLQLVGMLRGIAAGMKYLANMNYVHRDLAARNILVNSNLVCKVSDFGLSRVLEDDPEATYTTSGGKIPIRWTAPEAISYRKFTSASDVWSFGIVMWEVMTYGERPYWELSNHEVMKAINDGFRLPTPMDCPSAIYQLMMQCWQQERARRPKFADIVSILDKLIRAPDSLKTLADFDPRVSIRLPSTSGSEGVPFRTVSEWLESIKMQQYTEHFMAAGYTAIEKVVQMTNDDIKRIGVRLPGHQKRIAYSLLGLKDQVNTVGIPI
UniProt Q14012: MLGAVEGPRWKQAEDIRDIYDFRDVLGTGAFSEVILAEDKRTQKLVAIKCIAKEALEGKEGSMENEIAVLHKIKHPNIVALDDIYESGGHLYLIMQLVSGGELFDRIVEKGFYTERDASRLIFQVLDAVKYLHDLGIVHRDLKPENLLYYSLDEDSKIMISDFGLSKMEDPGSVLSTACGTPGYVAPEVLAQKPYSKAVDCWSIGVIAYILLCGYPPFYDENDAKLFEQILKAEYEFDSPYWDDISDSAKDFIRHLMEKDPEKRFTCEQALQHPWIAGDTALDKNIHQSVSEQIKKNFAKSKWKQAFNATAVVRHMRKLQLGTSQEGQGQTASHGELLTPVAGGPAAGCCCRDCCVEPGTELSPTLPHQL
UniProt Q9P289: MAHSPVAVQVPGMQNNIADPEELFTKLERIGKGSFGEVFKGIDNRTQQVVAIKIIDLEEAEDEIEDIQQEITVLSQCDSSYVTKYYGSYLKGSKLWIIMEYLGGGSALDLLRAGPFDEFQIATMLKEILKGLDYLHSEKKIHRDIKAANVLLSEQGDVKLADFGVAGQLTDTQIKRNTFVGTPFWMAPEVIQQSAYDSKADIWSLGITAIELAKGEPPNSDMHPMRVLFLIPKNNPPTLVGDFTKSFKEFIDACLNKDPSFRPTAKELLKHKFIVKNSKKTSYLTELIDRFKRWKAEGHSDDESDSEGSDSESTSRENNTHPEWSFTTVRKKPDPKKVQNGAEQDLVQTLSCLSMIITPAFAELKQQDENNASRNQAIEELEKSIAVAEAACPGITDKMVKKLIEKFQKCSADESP
UniProt Q9P0L2: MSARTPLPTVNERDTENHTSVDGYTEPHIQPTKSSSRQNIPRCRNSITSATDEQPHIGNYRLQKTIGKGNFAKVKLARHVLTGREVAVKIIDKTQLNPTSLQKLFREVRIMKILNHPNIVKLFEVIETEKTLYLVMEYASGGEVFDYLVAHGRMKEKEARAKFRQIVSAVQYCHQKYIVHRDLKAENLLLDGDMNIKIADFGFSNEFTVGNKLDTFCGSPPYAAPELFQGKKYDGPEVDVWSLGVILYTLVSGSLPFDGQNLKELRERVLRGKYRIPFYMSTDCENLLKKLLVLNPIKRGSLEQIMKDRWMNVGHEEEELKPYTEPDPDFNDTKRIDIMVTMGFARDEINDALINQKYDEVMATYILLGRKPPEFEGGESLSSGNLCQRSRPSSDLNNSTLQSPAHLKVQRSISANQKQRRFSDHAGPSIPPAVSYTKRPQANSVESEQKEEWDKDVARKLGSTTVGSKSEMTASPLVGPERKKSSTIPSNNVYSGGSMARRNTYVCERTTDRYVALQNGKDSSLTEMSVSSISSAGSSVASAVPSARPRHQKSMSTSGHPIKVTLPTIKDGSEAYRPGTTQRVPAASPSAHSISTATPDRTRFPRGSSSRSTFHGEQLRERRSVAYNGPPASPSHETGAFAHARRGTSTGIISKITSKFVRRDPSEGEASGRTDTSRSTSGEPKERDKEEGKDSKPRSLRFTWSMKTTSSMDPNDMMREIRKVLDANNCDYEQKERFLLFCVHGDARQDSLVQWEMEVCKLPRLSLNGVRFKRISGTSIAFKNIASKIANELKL

[3] = biological target: Inhibitor of nuclear factor kappa-B kinase subunit beta (Homo sapiens, UniProt O14920); assay: Inhibition of IKK-beta (unknown origin) in presence of ATP
[4] = biological target: Mitogen-activated protein kinase 1 (Homo sapiens, UniProt P28482); assay: Inhibition of MAPK1/ERK2 (unknown origin) in presence of ATP
[5] = biological target: T2, Serine/threonine-protein kinase Chk1 (Homo sapiens, UniProt O14757); assay: Inhibition of CHK1 (unknown origin) in presence of ATP
T2 sequence (O14757 whole entry): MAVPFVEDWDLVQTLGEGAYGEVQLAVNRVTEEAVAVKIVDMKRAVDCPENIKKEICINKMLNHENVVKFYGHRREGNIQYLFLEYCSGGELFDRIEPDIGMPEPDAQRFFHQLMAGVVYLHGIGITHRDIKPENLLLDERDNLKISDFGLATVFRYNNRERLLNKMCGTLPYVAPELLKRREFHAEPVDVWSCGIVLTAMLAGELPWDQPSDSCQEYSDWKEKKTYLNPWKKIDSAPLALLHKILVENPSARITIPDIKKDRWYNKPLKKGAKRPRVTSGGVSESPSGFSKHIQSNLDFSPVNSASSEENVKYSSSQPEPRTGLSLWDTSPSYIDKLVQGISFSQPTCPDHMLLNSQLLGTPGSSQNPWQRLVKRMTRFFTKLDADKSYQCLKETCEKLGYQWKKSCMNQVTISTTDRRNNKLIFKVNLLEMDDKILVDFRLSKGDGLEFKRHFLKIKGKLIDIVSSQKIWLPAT

Ephrin type-A receptor 2 = Ephrin type-A receptor 2 (Homo sapiens, UniProt P29317); assay: Inhibition of ECK (unknown origin) in presence of ATP
[6] = biological target: Calcium/calmodulin-dependent protein kinase type 1 (Homo sapiens, UniProt Q14012); assay: Inhibition of CAMK1 (unknown origin) in presence of ATP
[7] = biological target: Serine/threonine-protein kinase 26 (Homo sapiens, UniProt Q9P289); assay: Inhibition of MASK (unknown origin) in presence of ATP
[8] = biological target: Serine/threonine-protein kinase MARK1 (Homo sapiens, UniProt Q9P0L2); assay: Inhibition of MARK1 (unknown origin) in presence of ATP
[9] = biological target: T3, Serine/threonine-protein kinase 3 (Homo sapiens, UniProt Q13188); assay: Inhibition of MST2 (unknown origin) in presence of ATP
T3 sequence (Q13188 whole entry): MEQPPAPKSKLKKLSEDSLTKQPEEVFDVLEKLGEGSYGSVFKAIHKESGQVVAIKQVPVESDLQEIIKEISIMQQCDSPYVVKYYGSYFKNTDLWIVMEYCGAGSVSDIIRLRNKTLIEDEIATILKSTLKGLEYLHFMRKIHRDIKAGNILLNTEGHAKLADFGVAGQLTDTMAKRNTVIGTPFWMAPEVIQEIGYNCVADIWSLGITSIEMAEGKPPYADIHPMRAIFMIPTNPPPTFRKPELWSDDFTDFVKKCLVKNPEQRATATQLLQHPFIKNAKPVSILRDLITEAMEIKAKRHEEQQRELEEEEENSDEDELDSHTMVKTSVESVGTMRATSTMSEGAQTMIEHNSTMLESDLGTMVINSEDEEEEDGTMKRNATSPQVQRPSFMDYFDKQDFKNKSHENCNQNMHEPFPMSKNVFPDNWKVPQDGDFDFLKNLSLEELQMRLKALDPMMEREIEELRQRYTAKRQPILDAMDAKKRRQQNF

Measured: IC50

COc1ccccc1CNc1ncc(C(=O)NC2CCN(C)CC2)c(NC2CCCC2)n1
30 µM: [1] | [2] | Aurora kinase A

CN1CCC(NC(=O)c2cnc(NCc3cc(Cl)ccc3Cl)nc2NC2CCCC2)CC1
30 µM: [3] | [4]

CN1CCC(NC(=O)c2cnc(Nc3cc(Cl)cc(Cl)c3)nc2NC2CCC(N(C)C)CC2)CC1 (stereo not drawn)
30 µM: [5] | [3]

CN1CCC(NC(=O)c2cnc(Nc3cc(Cl)cc(Cl)c3)nc2N[C@@H]2COC[C@H]2O)CC1
30 µM: Ephrin type-A receptor 2 | [6] | [7] | [8] | [9] | [4]

From ChEMBL document CHEMBL2311250 (Bioorg Med Chem Lett, 2013)
